# Measurements reported in publication PMC9012344 (Drug Design, Development and Therapy, 2022).
# Assays:
# Format in all cases: cell-based, Human
# Settings in all cases: at 5 μM
# H460 cells = test: FITC Annexin V/PI staining assay for cell apoptosis, H460
# HCT116 cells = test: FITC Annexin V/PI staining assay for cell apoptosis, HCT116
# MDA-MB-468 cells = test: FITC Annexin V/PI staining assay for cell apoptosis, MDA-MB-468
smiles,measurement,setting,value
O=C(CCCCCCC(=O)Nc1ccccc1)NO [Vorinostat],apoptosis of H460 cells,H460 cells,about 20%
same,"proportion of apoptosis, HCT116",HCT116 cells,64.72%
same,"proportion of apoptosis, MDA-MB-468",MDA-MB-468 cells,49.19%
